{"sequences": {"note": "Amino acid sequences for entries named in this document (tags omitted). Residues count along the entry.", "UniProt P43220, 24-463": "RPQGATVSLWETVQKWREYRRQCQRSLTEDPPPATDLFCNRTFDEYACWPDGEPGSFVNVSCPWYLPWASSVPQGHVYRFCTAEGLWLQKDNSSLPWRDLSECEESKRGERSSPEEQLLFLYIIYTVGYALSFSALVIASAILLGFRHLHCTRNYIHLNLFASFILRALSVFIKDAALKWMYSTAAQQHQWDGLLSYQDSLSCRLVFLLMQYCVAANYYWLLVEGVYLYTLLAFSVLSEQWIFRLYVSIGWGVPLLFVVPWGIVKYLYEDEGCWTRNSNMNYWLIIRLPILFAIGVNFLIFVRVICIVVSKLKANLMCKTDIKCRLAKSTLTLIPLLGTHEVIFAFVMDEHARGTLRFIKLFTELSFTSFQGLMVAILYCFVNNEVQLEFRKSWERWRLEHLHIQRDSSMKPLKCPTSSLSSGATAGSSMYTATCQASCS", "UniProt P47871, 26-477": "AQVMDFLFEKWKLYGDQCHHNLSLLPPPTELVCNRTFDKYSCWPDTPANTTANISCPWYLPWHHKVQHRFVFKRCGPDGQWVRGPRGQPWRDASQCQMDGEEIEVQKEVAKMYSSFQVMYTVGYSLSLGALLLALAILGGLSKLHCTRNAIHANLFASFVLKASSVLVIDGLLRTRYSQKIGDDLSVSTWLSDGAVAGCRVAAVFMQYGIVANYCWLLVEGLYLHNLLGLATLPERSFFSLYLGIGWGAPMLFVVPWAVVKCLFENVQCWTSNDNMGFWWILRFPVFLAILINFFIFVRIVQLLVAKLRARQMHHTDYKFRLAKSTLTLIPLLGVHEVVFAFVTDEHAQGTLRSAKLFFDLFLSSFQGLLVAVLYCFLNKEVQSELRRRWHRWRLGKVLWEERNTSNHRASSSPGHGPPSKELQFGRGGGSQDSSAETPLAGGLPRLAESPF"}, "source": "patent US20250129135A1", "about": "“Multi-Agonist and Use Thereof” (priority 2021, published 2025)", "type_in_all_cases": "cell-based", "key": {"Human GIP R": {"biological_target": "T1, Human GIP R (Homo sapiens, UniProt P48546)", "T1 construct": "expressed in transfected cells; host or cells: CHO", "T1 sequence (P48546 22-466)": "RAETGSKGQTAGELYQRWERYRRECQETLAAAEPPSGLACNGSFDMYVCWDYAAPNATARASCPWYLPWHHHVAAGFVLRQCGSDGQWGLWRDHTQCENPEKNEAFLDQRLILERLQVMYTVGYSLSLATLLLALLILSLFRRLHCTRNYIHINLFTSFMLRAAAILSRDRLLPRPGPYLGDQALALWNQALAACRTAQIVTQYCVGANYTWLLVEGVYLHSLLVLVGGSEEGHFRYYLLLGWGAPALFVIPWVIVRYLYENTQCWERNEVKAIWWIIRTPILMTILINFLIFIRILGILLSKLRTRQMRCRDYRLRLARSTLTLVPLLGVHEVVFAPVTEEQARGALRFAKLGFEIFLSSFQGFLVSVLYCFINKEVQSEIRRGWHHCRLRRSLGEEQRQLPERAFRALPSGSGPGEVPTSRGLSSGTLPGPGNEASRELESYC", "experiment": "cAMP (HTRF) activity in CHO cells stably overexpressing GIP receptor", "details": "EC50 of human GIP / EC50 of compound", "procedure": "(§1) By measuring the cAMP signal response levels of the aforementioned cells, the agonistic activity of individual compound towards the corresponding receptor was determined. The intracellular cAMP content was measured using reagent kit available from Cisbio Corp. based on HTRF (homogeneous time-resolved fluorescence) technology.\n(§2) The cell fluid was transferred to 10 ml of HBSS for resuspension, and centrifuged at 1000 rpm for 5 minutes at room temperature.\n(§3) 10 μL cell suspension was added to each well in the 384 well plate. […] Using the ECHO liquid transfer system, 100 nL of the prepared compound solution was added to the corresponding cell suspensions in the 384 well plate, rotated and shaken at 1000 rpm for 1 minute to mix evenly, and then incubated at room temperature for 60 minutes. 10 μL of detection reagent was added to each well after drug incubation was completed, and incubation was performed in the kit at room temperature for 60 minutes. […] GraphPad Prism 5 plotting software was used to create compound concentration response curves and EC50 (nM) values was calculated."}, "Human GLP-1R": {"biological_target": "Human GLP-1R (Homo sapiens, UniProt P43220)", "experiment": "cAMP (HTRF) activity in HEK-293 cells stably overexpressing human GLP-1 receptor", "parameters": "expressed in transfected cells; host or cells: HEK-293", "procedure": "as §1, §2, §3"}, "Human GCG R": {"biological_target": "T2, Human GCG R (Homo sapiens, UniProt P47871)", "T2 construct": "expressed in transfected cells; host or cells: HEK-293", "experiment": "cAMP (HTRF) activity in HEK-293 cells stably overexpressing human GCG receptor", "details": "EC50 of human GCG / EC50 of compound", "procedure": "as §1, §2, §3"}}}
{"smiles": "CC[C@H](C)[C@H](NC(=O)[C@H](Cc1ccccc1)NC(=O)[C@H](C)NC(=O)C(C)(C)NC(=O)[C@H](CCC(N)=O)NC(=O)[C@H](C)NC(=O)[C@H](CCCCNC(=O)COCCOCCNC(=O)COCCOCCNC(=O)CC[C@H](NC(=O)CCCCCCCCCCCCCCCCCCC(=O)O)C(=O)O)NC(=O)[C@H](CCCCN)NC(=O)[C@H](CC(=O)O)NC(=O)[C@H](CC(C)C)NC(=O)[C@H](Cc1ccccc1)NC(=O)[C@@H](NC(=O)[C@H](CO)NC(=O)[C@H](Cc1ccc(O)cc1)NC(=O)[C@H](CC(=O)O)NC(=O)[C@H](CO)NC(=O)[C@@H](NC(=O)[C@](C)(Cc1ccccc1)NC(=O)[C@@H](NC(=O)CNC(=O)[C@H](CCC(N)=O)NC(=O)C(C)(C)NC(=O)[C@@H](N)Cc1ccc(O)cc1)[C@@H](C)O)[C@@H](C)O)[C@@H](C)CC)C(=O)N[C@@H](CCC(=O)O)C(=O)N[C@@H](Cc1ccccc1)C(=O)N[C@@H](CC(C)C)C(=O)N[C@@H](CC(C)C)C(=O)N[C@@H](CCC(=O)O)C(=O)NC(C)(C)C(=O)N[C@@H](Cc1c[nH]cn1)C(=O)N1CCC[C@H]1C(=O)N[C@@H](CO)C(=O)N[C@@H](CO)C(=O)NCC(=O)N[C@@H](C)C(=O)N1CCC[C@H]1C(=O)N1CCC[C@H]1C(=O)N1CCC[C@H]1C(=O)N[C@@H](CO)C(N)=O", "note": "[Compound 16]", "values": [{"measurement": "Human GIP R Rel. A (Relative Activity)", "setting": "Human GIP R", "result": 335.19, "unit": "%"}, {"measurement": "EC50", "setting": "Human GLP-1R", "result": 0.02, "unit": "nM"}, {"measurement": "Human GLP-1R Rel. A (Relative Activity)", "setting": "Human GLP-1R; EC50 of human GLP-1 (7-37) / EC50 of compound", "result": 220.00, "unit": "%"}, {"measurement": "Human GCG R Rel. A (Relative Activity)", "setting": "Human GCG R", "result": 33.93, "unit": "%"}]}
